Values of other authors as cited in patent US20080254497A1, “Response Predictors for Erbb Pathway-Specific Drugs” (MONOGRAM BIOSCIENCES, INC., priority 2004, published 2008).

Conditions: various studies; cited from earlier work

Erbitux: anti-EGFR antibody-based drug
mean concentration of Erbitux: 169-235 ugs/ml
trough concentration of Erbitux: 40-85 ugs/ml
